From article PMC4844572 (SpringerPlus, 2016)

Tested on: EstSTR1
Assay: UV absorbance ([…] nm), competition with reporter substrate cephalothin
Conditions: competitive against 100 μM cephalothin; 10 mM MES pH 6.8, bovine serum albumin 20 μg/ml, enzyme 396 μM as printed; stands in Km column, footnote gives Ki

CO/N=C(\C(=O)N[C@@H]1C(=O)N2C(C(=O)[O-])=C(C[N+]3(C)CCCC3)CS[C@H]12)c1csc(N)n1
Km (μM) / Wild: 0.19 ± 0.003 µM
